The numbers were not newly measured in patent publication US8895522B2, “Composition and method for the prevention, treatment and/or alleviation of an inflammatory disease” (Index Pharmaceuticals AB, priority 2005, dated 2014), which cites them from elsewhere.

This series deals with corticosteroid refractory ulcerative colitis patients. The note with it: i.v., cited from earlier work.

B1: INF-beta: interferon-beta given i.v. in the cited ulcerative colitis pilot study (protein, UniProt P01574 22-187, looked up)
Interferon beta: MSYNLLGFLQRSSNFQCQKLLWQLNGRLEYCLKDRMNFDIPEEIKQLQQFQKEDAALTIYEMLQNIFAIFRQDSSSTGWNETIVENLLANVYHQINHLKTVLEEKLEKEDFTRGKLMSSLHLKRYYGRILHYLKAKEYSHCAWTIVRVEILRNFYFINRLTGYLRN
With B1, under “22 of the 25 patients, within 3 weeks, all on corticosteroids”, the patients in remission is recorded as 88%. Further, where the note is “corticosteroid refractory ulcerative colitis”, the “mean length of response” value is on record as 13 months.
